LMNA splice mod: changes lamin A minigene splicing in HeLa cells; HeLa LMNA splicing GFP/RFP minigene ratio, 48 h; Potency, µM (titrated, usually from 46.1 µM), inactives show top-dose ratio change, negative = inhibition, most hits filed as inhibitors; 200,000 tested, 0.01% active; AID 1487; active means well fitted inhibition curve with a large enough effect in the signal ratio, with a control signal flat, not every such curve was filed as active; inconclusive means small, poorly fitted or top-dose-only effect, or effect the other way, or a change in a side signal; the % refers to the signal ratio; further: potency means the concentration at half of the fitted maximal effect; on the % scale 0 is the no-effect control and ±100 the full control effect
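S3 HeLa stable clones carrying a lamin A-EGFP splicing minigene plus DsRed2 were seeded at 600 cells/well in Opti-MEM with 2% FBS, pin-dosed and incubated 48 h at 37°C. Acumen cytometry (488 nm) gave the GFP/RFP total-intensity ratio.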
Sfp PPTase inh: Sfp phosphopantetheinyl transferase inhibition; Q9F4F7; Biochemical Sfp PPTase activity, qHTS; Potency, µM, for the others: max response, negative = inhibition, usual class: inhibitors; hit rate 3.5% among 310,000; active = well fitted inhibition curve with a large enough effect; inconclusive = small, poorly fitted or top-dose-only effect, or another doubt; inactive = no such curve, though single readings can be large or run the other way;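 also: the enzyme is Sfp with the accession as filed and its product quenches rhodamine fluorescence; potency is read from the fitted curve at half-maximal effect; 0% = enzyme reaction without inhibitor and -100% = no enzyme wells; top concentration of the series not given in the record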
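Compounds were incubated with enzyme (final 15 nM) for 15 min at room temperature before substrate addition started the reaction. Fluorescence at 525 nm excitation, 598 nm emission was recorded immediately and after 30 minutes.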
miR-21 reporter: miR-21 reporter, rising signal | AID 2288 | HeLa miR-21 FLuc reporter, luciferase, 48 h | 340,000 tested, under 10 active | Potency, µM (doses to about 38.3 µM), for inactives: at the top dose reporter change, positive = more light; active = well fitted rising curve with a large enough effect; inconclusive = small, poorly fitted or top-dose-only effect; inactive = no such curve, though single readings can be large or run the other way;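 note: % of control where 0% means no effect; miR-21 action dims this reporter so a rising signal means less miR-21 action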
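Compounds were titrated across several concentrations (up to approximately 40 uM) and incubated 48 hours with HeLa miR-21-FLuc reporter cells (miR-21 target sequence downstream of FLuc, endogenous miR-21). Readout was firefly luciferase luminescence after lytic detection reagent.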
ALDH1A1 block: inhibitors of human aldehyde dehydrogenase 1A1 | P00352 | Purified ALDH1A1, NADH fluorescence, propionaldehyde substrate | Potency, µM (top dose mostly 75.3 µM), for inactives: at the highest dose activity, negative = inhibition, actives largely listed as inhibitors | 220,000 tested, 7.3% active | AID 1030; active means well fitted inhibition curve with a large enough effect, not every such curve was filed as active; inconclusive means small, poorly fitted or top-dose-only effect, or another doubt; inactive means no such curve, though single readings can be large or run the other way;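 further: potency means the concentration at half of the fitted maximal effect; plate controls were no enzyme wells and a reference inhibitor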
G9a block: blocks human histone lysine methyltransferase G9a | Q96KQ7 | G9a H3K9 monomethylation, AlphaScreen, 2 h | Potency, µM (top dose mostly 102 µM), for the others: at the highest dose activity, negative = inhibition, usual class: inhibitors | 350,000 tested, 8.8% active | AID 504332; further: potency means the concentration at half of the fitted maximal effect; on the % scale 0 is the no-effect control and ±100 the full control effect; nearly all actives have a fitted effect of over 75% in size
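Step 1: enzyme (final 20 nM) with compound, 15 min RT. Step 2: substrate peptide 500 nM and SAM 20 uM, 2 h RT. Step 3: anti-H3K9me1 antibody and AlphaScreen beads, 10 min, then plate read.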
KDM4E inh: inhibitors of human JMJD2E histone demethylase; B2RXH2; Potency, µM (top dose mostly 57.1 µM), for inactives: top-dose activity change, negative = inhibition, most hits filed as inhibitors; 230,000 tested, 1.6% active; JMJD2E catalytic domain, FDH-coupled NADH fluorescence (FDH is formaldehyde dehydrogenase); AID 2147; active means well fitted inhibition curve with a large enough effect, not every such curve was filed as active; inconclusive means small, poorly fitted or top-dose-only effect, or another doubt; inactive means no such curve, though single readings can be large or run the other way;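 further: potency means the concentration at half of the fitted maximal effect; 0% = wells with enzyme and -100% = buffer wells without enzyme; nearly all actives have a fitted effect of over 50% in size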
Numbers without * were called inactive; ? = inconclusive; · = not tested or not shown; [ ] = another dose, or the depositor's remark. Sampled rows, rich in hits. Any-hit rate of the full collection: about 13%. Unless noted, the call rests on the fitted dose curve; in most records, active means well fitted curve in the direction sought with a large enough effect; inconclusive means small, poorly fitted or top-dose-only effect, or another doubt; inactive means no such curve, though single readings can be large; an effect the other way counts as inactive or inconclusive.

SMILES	LMNA splice mod	Sfp PPTase inh	miR-21 reporter	ALDH1A1 block	G9a block	KDM4E inh
CCOc1cc(/C=C(\C#N)C(=O)Nc2cccc(C(=O)O)c2)ccc1OCc1ccc(Br)cc1	·	-4.4%	-4.0%	·	44.7µM*	·
COc1cc(/C=C(\C#N)C(=O)Nc2nnc(C(F)(F)F)s2)ccc1OCc1ccc(C(F)(F)F)cc1C(F)(F)F	·	?	·	·	8.44µM*	·
CCOc1ccc(/C=C(\C#N)C(=O)Nc2sc3c(c2C(=O)OC)C(C(=O)OC)CC3)cc1OC (stereo unspecified)	·	·	-0.6%	·	1.41µM*	·
COc1ccc(NC(=O)/C(C#N)=C\c2ccc(-c3cc(C(=O)O)ccc3C)o2)cc1	·	10.0%	-5.6%	·	25.1µM*	·
COc1ccc(NC(=O)/C(C#N)=C/c2ccc(-c3ccccc3C(=O)O)o2)cc1	·	28.3%	-22.3%	·	-6.3%	·
COc1ccc(Br)c(C(=O)Nc2cc3c(cc2N2CCCCC2)n(C)c(=O)c(=O)n3C)c1	·	·	1.1%	·	-32.7%[59 µM]	·
CCOc1cccc(NC(=O)/C(C#N)=C\c2cccnc2)c1	28.3%[46 µM]	14.3%	1.2%	-4.6%	70.8µM*	-4.6%
CCOc1cc(/C=C(/C#N)C(=O)Nc2ccc(OC)cc2)ccc1OCc1ccc(C(=O)O)cc1	·	-14.2%	0.2%	·	56.2µM*	·
COc1cc(/C=C(\C#N)C(=O)NC2CCCCC2)ccc1OCc1ccc(C(=O)O)cc1	·	?	-21.4%	14.1µM*	-19.2%[59 µM]	-3.7%
COc1cc(/C=C(\C#N)C(=O)Nc2cccc(C(=O)O)c2)ccc1OCc1ccc(C)cc1	·	0.3%	-59.2%	·	?	·

Exported comma-delimited: entries from further up.
Molecule,LMNA splice mod,Sfp PPTase inh,miR-21 reporter,ALDH1A1 block,G9a block,KDM4E inh
COc1cc(/C=C(\C#N)C(=O)NC2CCCCC2)ccc1OCc1ccc(C(=O)O)cc1,·,?,-21.4%,14.1µM*,-19.2%[59 µM],-3.7%
COc1cc(/C=C(\C#N)C(=O)Nc2cccc(C(=O)O)c2)ccc1OCc1ccc(C)cc1,·,0.3%,-59.2%,·,?,·
COc1cc(/C=C(\C#N)C(=O)Nc2nnc(C(F)(F)F)s2)ccc1OCc1ccc(C(F)(F)F)cc1C(F)(F)F,·,?,·,·,8.44µM*,·
CCOc1ccc(/C=C(\C#N)C(=O)Nc2sc3c(c2C(=O)OC)C(C(=O)OC)CC3)cc1OC (stereo unspecified),·,·,-0.6%,·,1.41µM*,·
COc1ccc(Br)c(C(=O)Nc2cc3c(cc2N2CCCCC2)n(C)c(=O)c(=O)n3C)c1,·,·,1.1%,·,-32.7%[59 µM],·

Other records follow.
SMILES	LMNA splice mod	Sfp PPTase inh	miR-21 reporter	ALDH1A1 block	G9a block	KDM4E inh
COc1cc(/C=C(\C#N)C(=O)NC(C)C)ccc1OCc1ccc(C(=O)O)cc1	·	15.8%	-3.3%	?	?	-28.5%
COc1cc(/C=C(/C#N)C(=O)Nc2ccccc2)ccc1OCc1ccc(C(=O)O)cc1	-10.3%[46 µM]	17.3%	-18.4%	22.4µM*	?	-25.0%
O=C(c1ccc(CS(=O)c2ccc(F)cc2)o1)N1CCN(C2CCCCC2)CC1 (stereo unspecified)	·	6.5%	1.3%	·	20.1%	·
CC1(C(=O)O)CCC2(C)CCC3(C)C(=CC(=O)C4C5(C)CCC(O)C(C)(C)C5CCC43C)C2C1 (stereo unspecified)	·	3.3%	·	·	-5.9%[12.7 µM]	·
Cc1cc(Nc2cccc(Br)c2)n2c(nc3ccccc32)c1C#N	·	·	0.1%	·	?	·
CSc1ccc(CCNC(=O)c2sc3ncccc3c2-n2cccc2)cc1	-17.1%[46 µM]	·	8.7%	·	-34.4%[59 µM]	·
COc1cc(C(=O)O)ccc1OCc1ccncc1	·	3.5%	-1.3%	·	44.7µM*	·
CCOc1ccc(Br)cc1S(=O)(=O)Nc1cccc(S(=O)(=O)N(C)C)c1	-3.3%	-8.0%	-0.9%	20µM*	26.4%	-1.1%
O=C(O)Cc1sc(Nc2cccc3ccccc23)nc1-c1ccc(Cl)cc1	·	-26.1%	-11.7%	·	25.1µM*	·
CCOc1ccccc1Nc1nc(-c2ccc(C)cc2)c(CC(=O)O)s1	·	·	-4.9%	·	7.94µM*	·
O=C(O)Cc1sc(Nc2ccccc2)nc1-c1ccccc1	·	·	-39.2%	·	?	·
Cc1ccc(Nc2nc(-c3ccc(C)cc3)c(CC(=O)O)s2)cc1	-27.8%[46 µM]	-12.3%	-22.9%	?	35.5µM*	2.8%
Cc1cccc(/N=C/c2sc3ccccc3c2O)n1	2.9%[46 µM]	11.7%	-30.6%	-10.7%	31.6µM*	?
O=[N+]([O-])c1ccc(O)c(C=Nc2cccc3ccccc23)c1	·	6.7%	-1.6%	·	50.1µM*	·
O=[N+]([O-])c1ccc(O)c(C=Nc2cccc3ncccc23)c1	·	21.3%	-4.5%	-10.8%	13.5%[59 µM]	-11.8%
O=[N+]([O-])c1ccc(O)c(N=Cc2sc3ccccc3c2O)c1	-7.5%	-9.3%	-27.1%	?	44.7µM*	7.08µM*
CCCCNc1nc(Oc2ccc(OCC)nn2)nc(N2CCOCC2)n1	·	·	-4.6%	·	-3.5%[59 µM]	·
Cc1cc(C)c2nc(NNC(=O)c3ccc(S(=O)(=O)N4CCc5ccccc5C4)cc3)sc2c1	?	-2.0%	6.7%	?	39.8µM*	4.5%
CCc1nnc(NC(=O)c2ccc(S(=O)(=O)N3CCc4ccccc4C3)cc2)s1	-10.3%	5.3%	-11.3%	3.2%	-9.9%	-21.4%
